Here are results for three molecules from patent US11173145B2, “Compounds useful as inhibitors of indoleamine 2,3-dioxygenase and/or tryptophan dioxygenase” (Board of Regents, The University of Texas System, priority 2017, dated 2021).

Protein sequences, listed by entry. Tags and fused reporters are not part of them.
UniProt P14902, whole entry: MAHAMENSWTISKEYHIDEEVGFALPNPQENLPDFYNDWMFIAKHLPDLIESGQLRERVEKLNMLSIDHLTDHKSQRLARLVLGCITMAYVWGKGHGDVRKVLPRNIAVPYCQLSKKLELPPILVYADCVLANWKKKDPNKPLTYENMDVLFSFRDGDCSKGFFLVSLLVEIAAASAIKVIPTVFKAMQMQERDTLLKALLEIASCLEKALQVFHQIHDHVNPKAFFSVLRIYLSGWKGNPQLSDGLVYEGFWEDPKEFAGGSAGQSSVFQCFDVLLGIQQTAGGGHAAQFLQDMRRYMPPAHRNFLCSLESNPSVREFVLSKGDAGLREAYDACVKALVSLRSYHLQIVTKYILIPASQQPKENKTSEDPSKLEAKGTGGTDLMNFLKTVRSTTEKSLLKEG
UniProt P28776, whole entry: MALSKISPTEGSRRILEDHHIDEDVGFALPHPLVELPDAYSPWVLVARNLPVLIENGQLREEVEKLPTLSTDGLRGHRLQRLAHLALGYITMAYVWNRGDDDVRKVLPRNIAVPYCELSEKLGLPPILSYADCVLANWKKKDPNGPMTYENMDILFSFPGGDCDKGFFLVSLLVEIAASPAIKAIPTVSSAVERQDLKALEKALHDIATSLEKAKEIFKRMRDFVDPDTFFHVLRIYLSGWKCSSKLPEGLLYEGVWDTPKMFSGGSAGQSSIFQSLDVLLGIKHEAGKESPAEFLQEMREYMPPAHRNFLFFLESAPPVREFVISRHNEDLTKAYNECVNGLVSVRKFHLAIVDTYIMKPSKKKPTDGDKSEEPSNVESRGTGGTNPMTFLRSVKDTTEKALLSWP

As usually defined, the IC50 is the concentration that inhibits the measured activity by half. Low values mean inhibition by little substance, high ones a need for much substance.

Experiment [1] concerns the target IDO1 (Homo sapiens, UniProt P14902). The experiment is described as follows: IDO1 cell-based assay (HeLa cells, IFNgamma-induced, N-formylkynurenine/L-tryptophan by RFMS). Particulars: 10 ng/mL IFNgamma, 24 hours.
For experiment [2], the target named is mouse IDO1 (Mus musculus, UniProt P28776). Kind of experiment: Mouse IDO1 cell-based assay (PANC02 cells, mouse IFNgamma-induced, N-formylkynurenine/L-tryptophan by RFMS). Particulars: 30 ng/mL mouse IFNgamma, 48 hours.

For the molecule `CCC(NC(=O)c1ccc(Cl)cc1)[C@H]1[C@@H]2C[C@@H](C(C(=O)NC)c3ccccc3)C[C@@H]21` (relative stereo) [Compound 230], the concentration for half-maximal inhibition (IC50) in experiment [1] was in the range of 2 to 5 µM; in experiment [2], 0.5 to 2 µM.

`CCC(NC(=O)c1ccc(Cl)cc1)[C@H]1[C@@H]2C[C@@H](C(C(=O)NC)c3ccccc3)C[C@@H]21` (relative stereo) [Compound 231]: the figures for the 50% inhibitory concentration (IC50) in experiment [1] and in experiment [2] were above 5 µM and 2 to 5 µM, respectively.

Take `Fc1ccc2nc(C(F)(F)F)cc(OC3CC4C(CCOc5ccc(Cl)cc5)C4C3)c2c1` (centres unmarked): in experiment [1], the IC50 was above 5 µM.
